Results from patent US11813270B2, “Nitric oxide-releasing antibacterial compounds, formulations, and methods pertaining thereto” (KNOW BIO, LLC, priority 2020, dated 2023).

What was measured:
[1] = Maximum tolerated dose (MTD) study; conditions: SCID mice, intratracheal, once daily for 3 consecutive days
[2] = Nitric oxide release measured by chemiluminescence-based nitric oxide analyzer (NOA)
[3] = Degradation and NO/HNO release under (simulated) physiological conditions; conditions: for release of NO or HNO: physiological conditions (temperatures and pHs)

Compound	clinical condition of mice ([1]; 1-100 mg/kg, throughout the study)	adverse effects ([1]; up to maximum dose group 6 (100 mg/Kg))	NO-loading ([2]; combined composition of β-cyclodextrin and MTDD)	NO released per 1 mole (described degradation pathway) ([2]; described degradation pathway)	moles of NO released by one mole of compound ([2]; experimental results)	NO released (NO release profile) ([2]; pH 7.4, chemiluminescence)	NO radicals generated by 1 mole of compound ([2]; physiological conditions (37° C., pH 7.4))	theoretical NO load / theoretical yield ([2]; single diazeniumdiolate group, 2 moles NO per mole)	NO Load ([2]; unit not given)	release of NO or HNO [3]	release of NO or HNO ([3]; listed as Methane bis-diazeniumdiolate)	degradation ([3]; simulated physiological conditions)
methane trisdiazeniumdiolate sodium salt	bright, alert, and responsive	No adverse effects were observed	6.7 µmol/mg	2 mol	approximately 2 moles	6.7 μmol NO/mg	two moles of NO radicals	7.6 μmol NO/mg	6.7			
[O-]/[N+](C/[N+]([O-])=N\O)=N\O										does not release NO or HNO	does not release NO or NHO	does not degrade to any significant degree
